Tests used:
Acetyl-CoA carboxylase 1 = Acetyl-CoA carboxylase 1 (Rattus norvegicus, UniProt P11497); test: Inhibition of rat acetyl-CoA carboxylase 1
[1] = target: Acetyl-Coenzyme A carboxylase 2 (Rattus norvegicus, UniProt Q1HEC0); test: Inhibition of rat acetyl-CoA carboxylase 2

SMILES: O=C(c1c2ccccc2cc2ccccc12)N1CCC(N2CCC[C@@H](C(=O)N3CCOCC3)C2)CC1
- IC50 (Acetyl-CoA carboxylase 1): 55 nM
- IC50 [1]: 55 nM

Source: ChEMBL document CHEMBL1143266, “Synthesis of spiro[chroman-2,4'-piperidin]-4-one derivatives as acetyl-CoA carboxylase inhibitors” (Bioorg Med Chem Lett, 2009)
